# Permeability data for macrocyclic peptides

Source: CycPeptMPDB (Li et al. 2023), which took these values from Kelly et al. 2021, doi:10.1021/jacs.0c06115.

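The data file gives no further conditions (lipid, pH, time, direction or concentration), and values from different papers need not be comparable. Other peptides of the study may be missing here. Peptides that the database sets to -10, its floor, are left out.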

PAMPA measures passive passage through an artificial lipid membrane.
P is given in units of 10^-6 cm/s (from log10 values with two decimals); larger means faster passage.

compound | PAMPA (10^-6 cm/s)
CC[C@H]1NC(=O)[C@@H](NC(=O)[C@@H](CC(C)C)N(C)C(=O)[C@@H]2CCCN2C(C)=O)[C@@H](C)OC(=O)[C@@H]2CCCN2C(=O)[C@H](CC(C)C)NC(=O)[C@@H](C)N(C)C(=O)[C@@H](Cc2ccccc2)NC(=O)[C@H](Cc2ccccc2)NC1=O | 2.2
CC(=O)N[C@@H]1C(=O)N2CCC[C@H]2C(=O)N(C)[C@H](CC(C)C)C(=O)N[C@H](CC(C)C)C(=O)N(C)[C@@H](CC(C)C)C(=O)N[C@H](CC(C)C)C(=O)N(C)[C@H](C)C(=O)N[C@@H](CC(C)C)C(=O)N2CCC[C@@H]2C(=O)O[C@@H]1C | 1.2
CC[C@@H]1NC(=O)[C@@H](Cc2ccc(F)c(F)c2)NC(=O)[C@@H](NC(=O)[C@@H](CC(C)C)N(C)C(=O)[C@@H]2CCCN2C(C)=O)[C@@H](C)OC(=O)[C@@H]2CCCN2C(=O)[C@H](CC(C)C)NC(=O)[C@@H](C)N(C)C(=O)[C@@H](Cc2cccc3ccccc23)NC1=O | 1.5
CC(=O)N[C@@H]1C(=O)N2CCC[C@H]2C(=O)N(C)[C@H](CC(C)C)C(=O)N(C)[C@H](CC(C)C)C(=O)N[C@H](CC(C)C)C(=O)N[C@H](CC(C)C)C(=O)N[C@@H](C)C(=O)N[C@@H](CC(C)C)C(=O)N2CCC[C@@H]2C(=O)O[C@@H]1C | 0.23
CC(=O)N1CCC[C@H]1C(=O)N[C@@H]1C(=O)N[C@H](CC(C)C)C(=O)N(C)[C@@H](CC(C)C)C(=O)N(C)[C@@H](CC(C)C)C(=O)N[C@H](CC(C)C)C(=O)N[C@H](C)C(=O)N[C@@H](CC(C)C)C(=O)N2CCC[C@@H]2C(=O)O[C@@H]1C | 11
CC(=O)N1CCC[C@H]1C(=O)N(C)[C@H](CC(C)C)C(=O)N[C@@H]1C(=O)N[C@H](CC(C)C)C(=O)N[C@@H](Cc2ccccc2)C(=O)N[C@H](Cc2ccc(F)cc2)C(=O)N(C)[C@H](C)C(=O)N[C@@H](CC(C)C)C(=O)N2CCC[C@H]2C(=O)O[C@@H]1C | 2.2
CC(=O)N1CCC[C@H]1C(=O)N[C@@H]1C(=O)N(C)[C@H](CC(C)C)C(=O)N[C@H](CC(C)C)C(=O)N(C)[C@H](CC(C)C)C(=O)N(C)[C@@H](CC(C)C)C(=O)N(C)[C@@H](C)C(=O)N[C@@H](CC(C)C)C(=O)N2CCC[C@@H]2C(=O)O[C@@H]1C | 3.1
CC(=O)N[C@@H]1C(=O)N2CCC[C@H]2C(=O)N(C)[C@H](CC(C)C)C(=O)N[C@H](CC(C)C)C(=O)N(C)[C@H](CC(C)C)C(=O)N[C@H](CC(C)C)C(=O)N[C@@H](C)C(=O)N[C@@H](CC(C)C)C(=O)N2CCC[C@@H]2C(=O)O[C@@H]1C | 0.74
CC(=O)N1CCC[C@H]1C(=O)N[C@@H]1C(=O)N[C@H](CC(C)C)C(=O)N(C)[C@@H](CC(C)C)C(=O)N[C@@H](CC(C)C)C(=O)N[C@@H](CC(C)C)C(=O)N[C@@H](C)C(=O)N[C@@H](CC(C)C)C(=O)N2CCC[C@@H]2C(=O)O[C@@H]1C | 0.78
CC[C@@H]1NC(=O)[C@@H](CC)NC(=O)[C@@H](NC(=O)[C@@H](CC(C)C)N(C)C(=O)[C@@H]2CCCN2C(C)=O)[C@@H](C)OC(=O)[C@@H]2CCCN2C(=O)[C@H](CC(C)C)NC(=O)[C@@H](C)N(C)C(=O)[C@@H](Cc2ccc(F)c(F)c2)NC1=O | 0.28
CC[C@@H]1NC(=O)[C@@H](CC2CCCCC2)NC(=O)[C@@H](NC(=O)[C@@H](CC(C)C)N(C)C(=O)[C@@H]2CCCN2C(C)=O)[C@@H](C)OC(=O)[C@@H]2CCCN2C(=O)[C@H](CC(C)C)NC(=O)[C@@H](C)N(C)C(=O)[C@@H](CC2CCCCC2)NC1=O | 0.98
CCC[C@@H]1NC(=O)[C@@H](Cc2cccc3ccccc23)NC(=O)[C@@H](NC(=O)[C@@H](CC(C)C)N(C)C(=O)[C@@H]2CCCN2C(C)=O)[C@@H](C)OC(=O)[C@@H]2CCCN2C(=O)[C@H](CC(C)C)NC(=O)[C@@H](C)N(C)C(=O)[C@@H](CC(C)C)NC1=O | 4.8
CC(=O)N[C@@H]1C(=O)N2CCC[C@H]2C(=O)N(C)[C@H](CC(C)C)C(=O)N(C)[C@@H](CC(C)C)C(=O)N(C)[C@@H](CC(C)C)C(=O)N(C)[C@@H](CC(C)C)C(=O)N[C@H](C)C(=O)N[C@@H](CC(C)C)C(=O)N2CCC[C@@H]2C(=O)O[C@@H]1C | 7.8
CC(=O)N1CCC[C@H]1C(=O)N(C)[C@H](CC(C)C)C(=O)N[C@@H]1C(=O)N[C@H](Cc2ccccc2)C(=O)N[C@@H](Cc2ccc([N+](=O)[O-])cc2)C(=O)N[C@H](Cc2cccc3ccccc23)C(=O)N(C)[C@H](C)C(=O)N[C@@H](CC(C)C)C(=O)N2CCC[C@H]2C(=O)O[C@@H]1C | 0.14
CC(=O)N1CCC[C@H]1C(=O)N(C)[C@H](CC(C)C)C(=O)N[C@@H]1C(=O)N[C@H](Cc2ccc(F)c(F)c2)C(=O)N[C@@H](CCc2ccccc2)C(=O)N[C@H](Cc2ccc(F)c(F)c2)C(=O)N(C)[C@H](C)C(=O)N[C@@H](CC(C)C)C(=O)N2CCC[C@H]2C(=O)O[C@@H]1C | 0.16
CC(=O)N1CCC[C@H]1C(=O)N(C)[C@H](CC(C)C)C(=O)N[C@@H]1C(=O)N[C@H](CC(C)C)C(=O)N[C@@H](CC(C)C)C(=O)N[C@H](Cc2ccc(F)cc2)C(=O)N(C)[C@H](C)C(=O)N[C@@H](CC(C)C)C(=O)N2CCC[C@H]2C(=O)O[C@@H]1C | 2.9
CC(=O)N1CCC[C@H]1C(=O)N[C@@H]1C(=O)N(C)[C@H](CC(C)C)C(=O)N(C)[C@@H](CC(C)C)C(=O)N(C)[C@@H](CC(C)C)C(=O)N(C)[C@H](CC(C)C)C(=O)N[C@@H](C)C(=O)N[C@@H](CC(C)C)C(=O)N2CCC[C@@H]2C(=O)O[C@@H]1C | 1.6
CCC[C@H]1NC(=O)[C@@H](NC(=O)[C@@H](CC(C)C)N(C)C(=O)[C@@H]2CCCN2C(C)=O)[C@@H](C)OC(=O)[C@@H]2CCCN2C(=O)[C@H](CC(C)C)NC(=O)[C@@H](C)N(C)C(=O)[C@@H](CC(C)C)NC(=O)[C@H](Cc2ccc(OC)cc2)NC1=O | 1.4
CC(=O)N1CCC[C@H]1C(=O)N[C@@H]1C(=O)N(C)[C@H](CC(C)C)C(=O)N[C@H](CC(C)C)C(=O)N(C)[C@@H](CC(C)C)C(=O)N(C)[C@@H](CC(C)C)C(=O)N(C)[C@H](C)C(=O)N[C@@H](CC(C)C)C(=O)N2CCC[C@@H]2C(=O)O[C@@H]1C | 0.87
CC(=O)N[C@@H]1C(=O)N2CCC[C@H]2C(=O)N(C)[C@H](CC(C)C)C(=O)N[C@H](CC(C)C)C(=O)N(C)[C@H](CC(C)C)C(=O)N(C)[C@H](CC(C)C)C(=O)N[C@@H](C)C(=O)N[C@@H](CC(C)C)C(=O)N2CCC[C@@H]2C(=O)O[C@@H]1C | 0.4
CC(=O)N1CCC[C@H]1C(=O)N(C)[C@H](CC(C)C)C(=O)N[C@@H]1C(=O)N[C@H](CC2CCCCC2)C(=O)N[C@@H](CC(C)C)C(=O)N[C@H](CC(C)C)C(=O)N(C)[C@H](C)C(=O)N[C@@H](CC(C)C)C(=O)N2CCC[C@H]2C(=O)O[C@@H]1C | 2.2
CC(=O)N[C@@H]1C(=O)N2CCC[C@H]2C(=O)N(C)[C@H](CC(C)C)C(=O)N(C)[C@@H](CC(C)C)C(=O)N(C)[C@@H](CC(C)C)C(=O)N[C@@H](CC(C)C)C(=O)N[C@H](C)C(=O)N[C@@H](CC(C)C)C(=O)N2CCC[C@@H]2C(=O)O[C@@H]1C | 0.43

A selection of 3 entries from above:

{"smiles": "CC(=O)N1CCC[C@H]1C(=O)N[C@@H]1C(=O)N(C)[C@H](CC(C)C)C(=O)N[C@H](CC(C)C)C(=O)N(C)[C@H](CC(C)C)C(=O)N(C)[C@@H](CC(C)C)C(=O)N(C)[C@@H](C)C(=O)N[C@@H](CC(C)C)C(=O)N2CCC[C@@H]2C(=O)O[C@@H]1C", "PAMPA (10^-6 cm/s)": "3.1"}
{"smiles": "CC(=O)N[C@@H]1C(=O)N2CCC[C@H]2C(=O)N(C)[C@H](CC(C)C)C(=O)N[C@H](CC(C)C)C(=O)N(C)[C@@H](CC(C)C)C(=O)N[C@H](CC(C)C)C(=O)N(C)[C@H](C)C(=O)N[C@@H](CC(C)C)C(=O)N2CCC[C@@H]2C(=O)O[C@@H]1C", "PAMPA (10^-6 cm/s)": "1.2"}
{"smiles": "CC(=O)N[C@@H]1C(=O)N2CCC[C@H]2C(=O)N(C)[C@H](CC(C)C)C(=O)N(C)[C@H](CC(C)C)C(=O)N[C@H](CC(C)C)C(=O)N[C@H](CC(C)C)C(=O)N[C@@H](C)C(=O)N[C@@H](CC(C)C)C(=O)N2CCC[C@@H]2C(=O)O[C@@H]1C", "PAMPA (10^-6 cm/s)": "0.23"}